# Cyclic peptide permeability, from CycPeptMPDB

Collected by the curators of CycPeptMPDB (Li et al. 2023) from Townsend et al. 2020, doi:10.26434/chemrxiv.13335941.v1.

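Conditions beyond the assay type are not listed; see the original paper. The list need not hold all peptides of the study. Entries at the database's floor value (log10 P of -10) are not listed.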

PAMPA measures passive passage through an artificial lipid membrane.
Permeability is given as log10 of P in cm/s; higher (less negative) is more permeable.

| SMILES | PAMPA (log10 cm/s) |
|---|---|
| CC(C)C[C@@H]1C(=O)N(Cc2ccccc2)CC(=O)N2CCC[C@H]2C(=O)N(Cc2ccccc2)CC(=O)N[C@@H](Cc2ccccc2)C(=O)N2CCC[C@@H]2C(=O)N(C)[C@@H](C)C(=O)N1C | -5.46 |
| CC(C)C[C@@H]1NC(=O)[C@@H]2CCCN2C(=O)[C@@H](CC(C)C)NC(=O)[C@@H](CC(C)C)NC(=O)[C@@H](C)N(C)C(=O)[C@H](Cc2ccccc2)NC1=O | -5.40 |
| CC(C)C[C@@H]1NC(=O)[C@H]2CCCN2C(=O)[C@@H](CC(C)C)N(C)C(=O)[C@@H](CC(C)C)NC(=O)[C@@H](C)N(C)C(=O)[C@@H]2CCCN2C(=O)[C@H](Cc2ccccc2)NC1=O | -6.23 |
| CC(C)C[C@H]1C(=O)N(C)[C@@H](CC(C)C)C(=O)N2CCC[C@@H]2C(=O)N(Cc2ccccc2)CC(=O)N[C@@H](Cc2ccccc2)C(=O)N2CCC[C@@H]2C(=O)N(C)[C@@H](C)C(=O)N1C | -5.15 |
| CC(C)C[C@@H]1NC(=O)[C@@H](C)NC(=O)[C@H](Cc2ccccc2)NC(=O)[C@@H](CC(C)C)NC(=O)[C@@H]2CCCN2C(=O)[C@H](CC(C)C)NC1=O | -6.89 |
| CC(C)C[C@@H]1C(=O)N[C@H](CC(C)C)C(=O)N2CCC[C@H]2C(=O)N(C)[C@@H](CC(C)C)C(=O)N[C@@H](Cc2ccccc2)C(=O)N2CCC[C@H]2C(=O)N[C@H](C)C(=O)N1C | -5.50 |
| CC(C)C[C@@H]1C(=O)N[C@@H](Cc2ccccc2)CC(=O)N2CCC[C@H]2C(=O)N(C)[C@@H](CC(C)C)C(=O)N[C@@H](Cc2ccccc2)C(=O)N[C@H](C)C(=O)N1C | -5.41 |
| CC(C)C[C@@H]1C(=O)N2CCC[C@H]2C(=O)N[C@H](CC(C)C)C(=O)N[C@@H](Cc2ccccc2)C(=O)N(C)[C@@H](C)C(=O)N(C)[C@H](CC(C)C)C(=O)N1C | -4.85 |
| CC(C)C[C@@H]1NC(=O)[C@H](C)N(C)C(=O)[C@H](Cc2ccccc2)NC(=O)[C@@H](CC(C)C)NC(=O)[C@@H]2CCCN2C(=O)[C@H](CC(C)C)N(C)C1=O | -6.00 |
| CC(C)C[C@@H]1NC(=O)[C@@H](CC(C)C)NC(=O)[C@H](C)N(C)C(=O)[C@H](Cc2ccccc2)NC(=O)CN(Cc2ccccc2)C(=O)[C@@H]2CCCN2C1=O | -5.35 |
| CC(C)C[C@H]1NC(=O)[C@@H](C)NC(=O)[C@@H]2CCCN2C(=O)[C@H](Cc2ccccc2)NC(=O)[C@H](CC(C)C)N(C)C(=O)[C@@H]2CCCN2C(=O)[C@H](CC(C)C)N(C)C1=O | -5.61 |
| CC(C)C[C@H]1C(=O)N(C)[C@@H](CC(C)C)C(=O)N2CCC[C@H]2C(=O)N(Cc2ccccc2)CC(=O)N[C@@H](Cc2ccccc2)C(=O)N2CCC[C@@H]2C(=O)N[C@@H](C)C(=O)N1C | -5.81 |
| CC(C)C[C@@H]1NC(=O)[C@@H]2CCCN2C(=O)[C@@H](CC(C)C)NC(=O)[C@@H](CC(C)C)N(C)C(=O)C[C@H](Cc2ccccc2)NC(=O)[C@@H]2CCCN2C(=O)[C@H](Cc2ccccc2)NC1=O | -5.65 |
| CCCN1CC(=O)N(C)[C@H](CC(C)C)C(=O)N(C)[C@@H](CC(C)C)C(=O)N2CCC[C@H]2C(=O)N(C)[C@H](CC(C)C)C(=O)N[C@@H](Cc2ccccc2)C(=O)N2CCC[C@H]2C1=O | -5.41 |
| CC(C)C[C@@H]1NC(=O)[C@H](C)N(C)C(=O)[C@H]2CCCN2C(=O)[C@H](Cc2ccccc2)NC(=O)[C@H](CC(C)C)N(C)C(=O)[C@H]2CCCN2C(=O)[C@H](CC(C)C)NC1=O | -5.59 |
| CC(C)C[C@@H]1NC(=O)[C@@H](C)N(C)C(=O)[C@H]2CCCN2C(=O)[C@H](Cc2ccccc2)NC(=O)CN(Cc2ccccc2)C(=O)[C@H]2CCCN2C(=O)[C@@H](CC(C)C)NC1=O | -6.02 |
| CC(C)C[C@@H]1NC(=O)[C@@H](C)N(C)C(=O)[C@@H]2CCCN2C(=O)[C@H](Cc2ccccc2)NC(=O)CN(Cc2ccccc2)C(=O)[C@@H]2CCCN2C(=O)[C@@H](CC(C)C)NC1=O | -6.38 |
| CC(C)C[C@@H]1NC(=O)[C@@H](CC(C)C)N(C)C(=O)[C@H](C)NC(=O)[C@H]2CCCN2C(=O)[C@H](Cc2ccccc2)NC(=O)CN(Cc2ccccc2)C(=O)[C@H]2CCCN2C1=O | -5.51 |

The 2 highest values of PAMPA among the entries above:

| SMILES | PAMPA (log10 cm/s) |
|---|---|
| CC(C)C[C@@H]1C(=O)N2CCC[C@H]2C(=O)N[C@H](CC(C)C)C(=O)N[C@@H](Cc2ccccc2)C(=O)N(C)[C@@H](C)C(=O)N(C)[C@H](CC(C)C)C(=O)N1C | -4.85 |
| CC(C)C[C@H]1C(=O)N(C)[C@@H](CC(C)C)C(=O)N2CCC[C@@H]2C(=O)N(Cc2ccccc2)CC(=O)N[C@@H](Cc2ccccc2)C(=O)N2CCC[C@@H]2C(=O)N(C)[C@@H](C)C(=O)N1C | -5.15 |